Results on one substance are retold here after US9308270B2, “Pharmaceutical composition on the basis of nanomicelles containing epigallocatechin gallate and a method of administration thereof to treat atopic dermatitis, Crohn's disease, adenomyosis, and hyperplastic diseases of the prostate gland” (NORDIC LABS LIMITED, priority 2011, dated 2016).

A short description of this series: Solubility of EGCG with Pluronic F127 (HPLC). The conditions noted are these: for EGCG (mg/ml) solubility: 50 mg/ml EGCG.

In the case of epigallocatechin-3-gallate [EGCG], the “EGCG (mg/ml) solubility” value is, setting by setting: (F127 2 % weight/volume) 0.87 mg/mL; (F127 4 % weight/volume) 7.24 mg/mL; (F127 6 % weight/volume) 16.37 mg/mL; (F127 8 % weight/volume) 43.88 mg/mL. The “solubility in 8% Pluronic F127 relative to that in water” value (8% Pluronic F127 vs water) is given as 105 times. The substance also came in with a water solubility (free EGCG (containing 90% of catechin), water) of 480 µg/mL. Further, the “EGCG content of stable aqueous dispersions” value (with Pluronic F127) is reported as “more than 50 mg/ml”.
